Laboratory results from patent publication US20040082635A1, “Fused cyclic compounds and medicinal use thereof” (priority 2001, published 2004).

Sequences of proteins named here, by UniProt entry; tags and fusion partners are left off. Residues count along the entry.
UniProt P26663, 2420-3010: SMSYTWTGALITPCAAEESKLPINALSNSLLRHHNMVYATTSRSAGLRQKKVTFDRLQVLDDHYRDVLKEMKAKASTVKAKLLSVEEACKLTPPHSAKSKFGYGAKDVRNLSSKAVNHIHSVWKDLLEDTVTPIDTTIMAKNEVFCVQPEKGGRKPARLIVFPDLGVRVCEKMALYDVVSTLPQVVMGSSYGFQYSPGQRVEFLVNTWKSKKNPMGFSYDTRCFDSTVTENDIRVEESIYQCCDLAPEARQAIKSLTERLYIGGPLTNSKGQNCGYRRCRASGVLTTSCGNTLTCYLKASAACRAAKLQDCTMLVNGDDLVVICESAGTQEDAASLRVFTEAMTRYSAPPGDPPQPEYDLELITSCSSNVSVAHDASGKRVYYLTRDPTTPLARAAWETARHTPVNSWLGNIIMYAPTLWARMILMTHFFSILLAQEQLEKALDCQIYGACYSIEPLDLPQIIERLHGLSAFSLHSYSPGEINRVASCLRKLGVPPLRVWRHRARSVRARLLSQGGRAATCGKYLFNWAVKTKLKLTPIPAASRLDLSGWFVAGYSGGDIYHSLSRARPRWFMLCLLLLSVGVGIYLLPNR

molecular target: T1, HCV polymerase (Hepatitis C virus genotype 1b, UniProt P26663); test: biochemical; conditions: HCV polymerase inhibitory activity IC50
T1 construct: a region encoding NS5B (591 amino acids; J Virol 1991 Mar, 65(3), 1105-13) was amplified by PCR; 6 His (N); made in house; host or cells: Escherichia coli

SMILES | pIC50
CNC(=O)c1ccc(-c2ccc(Cl)cc2)c(COc2ccc(-c3nc4cc(C(=O)O)ccc4n3C3CCCCC3)c(F)c2)c1 [Example 268, 2-{4-[2-(4-chlorophenyl)-5-methylcarbamoylbenzyloxy]-2-fluorophenyl}-1-cyclohexylbenzimidazole-5-carboxylic acid hydrochloride] | 7.92
NC(=O)c1ccc(-c2ccc(Cl)cc2)c(COc2ccc(-c3nc4cc(C(=O)O)ccc4n3C3CCCCC3)cc2)c1 [Example 262, 2-{4-[3-carbamoyl-6-(4-chlorophenyl)benzyloxy]phenyl}-1-cyclohexylbenzimidazole-5-carboxylic acid hydrochloride] | 7.89

same assay, conditions: read-out: HCV polymerase inhibitory activity IC50

SMILES | pIC50
NC(=O)c1ccc(-c2ccc(Cl)cc2)c(COc2ccc(-c3nc4cc(C(=O)O)ccc4n3C3CCCCC3)cc2)c1 [Example 190, 2-{4-[3-carbamoyl-6-(4-chlorophenyl)benzyloxy]phenyl}-1-cyclohexylbenzimidazole-5-carboxylic acid] | 7.70
O=C(O)c1ccc2c(c1)nc(-c1ccc(OCCC(c3ccccc3)c3ccccc3)cc1)n2C1CCCCC1 [Example 93, 1-cyclohexyl-2-[4-(3,3-diphenylpropyloxy)phenyl]benzimidazole-5-carboxylic acid] | 6.80
COc1ccccc1CCOc1ccc(-c2nc3cc(C(=O)O)ccc3n2C2CCCCC2)cc1 [Example 120, 1-cyclohexyl-2-{4-[2-(2-methoxyphenyl)ethoxy]phenyl}-benzimidazole-5-carboxylic acid] | 6.80
O=C(O)c1ccc2c(c1)nc(-c1ccc(OCc3ccccc3)cc1)n2C1CCCCC1 [Example 89, 2-(4-benzyloxyphenyl)-1-cyclohexylbenzimidazole-5-carboxylic acid] | 6.47
O=C(O)c1ccc2c(c1)nc(-c1ccc(OCCc3ccccc3-c3ccccc3)cc1)n2C1CCCCC1 [Example 158, 2-{4-[2-(2-biphenylyl)ethoxy]phenyl}-1-cyclohexylbenzimidazole-5-carboxylic acid] | 6.96
C=C(C)CCOc1cccc(Oc2ccc(-c3nc4cc(C(=O)O)ccc4n3C3CCCCC3)cc2)c1 [Example 164, 1-cyclohexyl-2-{4-[3-(3-methyl-3-butenyloxy)phenoxy]phenyl}-benzimidazole-5-carboxylic acid] | 6.80
Cc1ccc(-c2ccc(Cl)cc2COc2ccc(-c3nc4cc(C(=O)O)ccc4n3C3CCCCC3)cc2)cc1 [Example 142, 2-{4-[3-chloro-6-(4-methylphenyl)benzyloxy]phenyl}-1-cyclohexylbenzimidazole-5-carboxylic acid] | 7.26
O=C(O)c1ccc2c(c1)nc(-c1ccc(OCCCc3ccccc3)cc1)n2C1CCCCC1 [Example 97, 1-cyclohexyl-2-[4-(3-phenylpropyloxy)phenyl]benzimidazole-5-carboxylic acid] | 6.80
O=C(O)c1ccc2c(c1)nc(-c1ccc(OC(c3cccc(F)c3)c3cccc(F)c3)cc1)n2C1CCCCC1 [Example 207, 2-{4-[bis(3-fluorophenyl)methoxy]phenyl}-1-cyclohexylbenzimidazole-5-carboxylic acid] | 7.09
Cc1ncc(COc2ccc(-c3nc4cc(C(=O)O)ccc4n3C3CCCCC3)cc2)c(-c2ccc(Cl)cc2)n1 [Example 233, 2-{4-[{4-(4-chlorophenyl)-2-methyl-5-pyrimidinyl}methoxy]phenyl}-1-cyclohexylbenzimidazole-5-carboxylic acid hydrochloride] | 7.55
O=C(N[C@@H](COc1ccc(-c2nc3cc(C(=O)O)ccc3n2C2CCCCC2)cc1)c1ccccc1)OCc1ccccc1 [Example 130, 2-{4-[(2R)-2-benzyloxycarbonylamino-2-phenylethoxy]phenyl}-1-cyclohexylbenzimidazole-5-carboxylic acid] | 6.80
COc1ccc(-c2ccc(Cl)cc2)c(CSc2ccc(-c3nc4cc(C(=O)O)ccc4n3C3CCCCC3)cc2)c1 [Example 311, 2-{4-[2-(4-chlorophenyl)-5-methoxybenzylthio]phenyl}-1-cyclohexylbenzimidazole-5-carboxylic acid hydrochloride] | 6.80
COc1cc(-c2ccc(Cl)cc2COc2ccc(-c3nc4cc(C(=O)O)ccc4n3C3CCCCC3)cc2)cc(OC)c1OC [Example 157, 2-{4-[3-chloro-6-(3,4,5-trimethoxyphenyl)benzyloxy]phenyl}-1-cyclohexylbenzimidazole-5-carboxylic acid] | 6.80

More lines, now with the values ahead:

pIC50 | SMILES
7.60 | O=C(O)c1ccc2c(c1)nc(-c1ccc(OC(c3ccccc3)c3cccnc3)cc1F)n2C1CCCCC1 (centres unmarked) [Example 313, 2-[4-(phenyl-3-pyridylmethoxy)-2-fluorophenyl]-1-cyclohexylbenzimidazole-5-carboxylic acid]
7.85 | CCN(C(C)=O)c1ccc(-c2ccc(Cl)cc2)c(COc2ccc(-c3nc4cc(C(=O)O)ccc4n3C3CCCCC3)c(F)c2)c1 [Example 459, 2-[4-{2-(4-chlorophenyl)-5-(N-acetyl-N-ethylamino)benzyloxy}-2-fluorophenyl]-1-cyclohexylbenzimidazole-5-carboxylic acid hydrochloride]
7.47 | O=C(O)c1ccc2c(c1)nc(-c1ccc(OCc3cc(Cl)ccc3-c3ccc(Cl)cc3)cc1)n2C1CCCCC1 [Example 6]
7.77 | CC(=O)Nc1ccc(-c2ccc(Cl)cc2)c(COc2ccc(-c3nc4cc(C(=O)O)ccc4n3C3CCCCC3)cc2)c1 [Example 183, 2-{4-[3-acetylamino-6-(4-chlorophenyl)benzyloxy]phenyl}-1-cyclohexylbenzimidazole-5-carboxylic acid]
7.28 | COc1ccc(-c2ccc(Cl)cc2COc2ccc(-c3nc4cc(C(=O)O)ccc4n3C3CCCCC3)cc2)cc1 [Example 143, 2-{4-[3-chloro-6-(4-methoxyphenyl)benzyloxy]phenyl}-1-cyclohexylbenzimidazole-5-carboxylic acid]
7.74 | NS(=O)(=O)c1ccc(-c2ccc(Cl)cc2)c(COc2ccc(-c3nc4cc(C(=O)O)ccc4n3C3CCCCC3)cc2)c1 [Example 250, 2-{4-[2-(4-chlorophenyl)-5-sulfamoylbenzyloxy]phenyl}-1-cyclohexylbenzimidazole-5-carboxylic acid trifluoroacetate]
6.27 | Cc1ccc(COc2ccc(-c3nc4cc(C(=O)O)ccc4n3C3CCCC3)cc2)cc1 [Example 50, 1-cyclopentyl-2-[4-(4-methylbenzyloxy)phenyl]benzimidazole-5-carboxylic acid]
7.92 | CC(C)NC(=O)c1ccc(-c2ccc(Cl)cc2)c(COc2ccc(-c3nc4cc(C(=O)O)ccc4n3C3CCCCC3)c(F)c2)c1 [Example 285, 2-{4-[2-(4-chlorophenyl)-5-isopropylcarbamoylbenzyloxy]-2-fluorophenyl}-1-cyclohexylbenzimidazole-5-carboxylic acid]
6.59 | O=C(O)c1ccc2c(c1)nc(-c1ccc(OCc3cc(Cl)cc(Cl)c3)cc1)n2C1CCCC1 [Example 67, 1-cyclopentyl-2-[4-(3,5-dichlorobenzyloxy)phenyl]benzimidazole-5-carboxylic acid]
7.08 | O=C(O)c1ccc2c(c1)nc(-c1ccc(OCc3cc(Cl)ccc3-c3ccccc3)cc1)n2C1CCCCC1 [Example 94, 2-[4-(3-chloro-6-phenylbenzyloxy)phenyl]-1-cyclohexylbenzimidazole-5-carboxylic acid]
7.62 | N#Cc1ccc(-c2ccc(Cl)cc2COc2ccc(-c3nc4cc(C(=O)O)ccc4n3C3CCCCC3)cc2)cc1 [Example 368, 2-{4-[5-chloro-2-(4-cyanophenyl)benzyloxy]phenyl}-1-cyclohexylbenzimidazole-5-carboxylic acid hydrochloride]

pIC50: −log10 of the molar value. Counter-ions that a name gives are not always drawn.
